Experimental data taken from PMC3961306, “Comparison of the Cancer Gene Targeting and Biochemical Selectivities of All Targeted Kinase Inhibitors Approved for Clinical Use” (PLoS ONE, 2014).

The chains behind the UniProt entries cited, without tags or fusion partners. Residues count along the entry.
UniProt P27448, whole entry, stated change not applied: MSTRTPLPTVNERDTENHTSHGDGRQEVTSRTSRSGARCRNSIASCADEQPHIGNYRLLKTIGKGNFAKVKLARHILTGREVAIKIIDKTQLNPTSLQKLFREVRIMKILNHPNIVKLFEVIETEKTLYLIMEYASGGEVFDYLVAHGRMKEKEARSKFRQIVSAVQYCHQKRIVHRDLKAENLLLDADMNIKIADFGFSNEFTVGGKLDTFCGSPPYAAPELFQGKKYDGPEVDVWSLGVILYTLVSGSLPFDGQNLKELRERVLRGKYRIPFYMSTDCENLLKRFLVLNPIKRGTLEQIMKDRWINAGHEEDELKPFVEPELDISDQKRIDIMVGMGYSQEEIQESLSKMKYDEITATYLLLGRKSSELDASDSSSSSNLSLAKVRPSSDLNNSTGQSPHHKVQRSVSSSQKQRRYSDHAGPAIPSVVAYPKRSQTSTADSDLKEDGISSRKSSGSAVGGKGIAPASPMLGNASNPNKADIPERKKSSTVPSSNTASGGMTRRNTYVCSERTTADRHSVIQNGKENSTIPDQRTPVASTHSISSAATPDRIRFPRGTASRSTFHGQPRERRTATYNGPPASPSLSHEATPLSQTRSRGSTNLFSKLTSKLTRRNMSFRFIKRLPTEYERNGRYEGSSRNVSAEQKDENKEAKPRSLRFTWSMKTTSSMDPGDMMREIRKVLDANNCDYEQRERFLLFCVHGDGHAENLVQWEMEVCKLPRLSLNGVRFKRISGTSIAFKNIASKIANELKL
UniProt P16234, 24-1089 V561D: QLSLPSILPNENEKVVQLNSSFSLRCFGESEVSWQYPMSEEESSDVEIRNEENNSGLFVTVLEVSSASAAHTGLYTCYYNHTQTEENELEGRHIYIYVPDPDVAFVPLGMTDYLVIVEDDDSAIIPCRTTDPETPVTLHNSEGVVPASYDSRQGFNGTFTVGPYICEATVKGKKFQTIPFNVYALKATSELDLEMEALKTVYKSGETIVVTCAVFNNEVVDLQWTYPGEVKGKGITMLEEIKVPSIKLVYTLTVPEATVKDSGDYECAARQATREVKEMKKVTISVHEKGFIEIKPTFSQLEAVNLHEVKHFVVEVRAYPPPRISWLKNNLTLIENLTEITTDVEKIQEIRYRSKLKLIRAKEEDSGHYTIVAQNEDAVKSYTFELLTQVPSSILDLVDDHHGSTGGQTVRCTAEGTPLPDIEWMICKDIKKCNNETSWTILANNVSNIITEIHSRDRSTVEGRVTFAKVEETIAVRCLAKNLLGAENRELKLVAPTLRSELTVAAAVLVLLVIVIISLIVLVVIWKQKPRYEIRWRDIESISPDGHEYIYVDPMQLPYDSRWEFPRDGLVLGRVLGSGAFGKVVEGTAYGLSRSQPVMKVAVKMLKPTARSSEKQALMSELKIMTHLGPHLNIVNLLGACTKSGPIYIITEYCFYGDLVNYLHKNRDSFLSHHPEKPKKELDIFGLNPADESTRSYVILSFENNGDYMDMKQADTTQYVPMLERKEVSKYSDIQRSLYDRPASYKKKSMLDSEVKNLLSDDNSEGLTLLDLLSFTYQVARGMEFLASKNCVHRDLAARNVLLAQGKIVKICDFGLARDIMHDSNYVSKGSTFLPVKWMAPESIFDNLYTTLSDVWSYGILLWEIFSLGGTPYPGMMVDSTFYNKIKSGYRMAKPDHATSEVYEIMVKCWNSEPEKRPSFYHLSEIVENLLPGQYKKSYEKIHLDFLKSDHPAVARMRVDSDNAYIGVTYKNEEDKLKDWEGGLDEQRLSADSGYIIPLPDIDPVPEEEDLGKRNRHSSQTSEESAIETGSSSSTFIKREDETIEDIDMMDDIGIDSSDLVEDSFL
UniProt P49759, whole entry, stated change not applied: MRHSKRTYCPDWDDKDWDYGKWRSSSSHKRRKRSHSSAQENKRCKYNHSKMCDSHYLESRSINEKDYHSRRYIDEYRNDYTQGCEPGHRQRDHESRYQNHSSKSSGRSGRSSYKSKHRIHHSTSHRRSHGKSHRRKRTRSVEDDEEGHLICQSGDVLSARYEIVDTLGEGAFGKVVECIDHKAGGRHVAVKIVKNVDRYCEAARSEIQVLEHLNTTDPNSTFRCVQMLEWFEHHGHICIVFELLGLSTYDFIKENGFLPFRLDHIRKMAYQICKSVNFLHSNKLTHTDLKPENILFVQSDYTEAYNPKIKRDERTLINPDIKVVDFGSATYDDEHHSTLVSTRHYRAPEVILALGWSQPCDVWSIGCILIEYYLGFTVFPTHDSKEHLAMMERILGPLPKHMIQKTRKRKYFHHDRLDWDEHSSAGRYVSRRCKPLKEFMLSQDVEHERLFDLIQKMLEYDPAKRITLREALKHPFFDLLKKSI
UniProt O14757, whole entry, stated change not applied: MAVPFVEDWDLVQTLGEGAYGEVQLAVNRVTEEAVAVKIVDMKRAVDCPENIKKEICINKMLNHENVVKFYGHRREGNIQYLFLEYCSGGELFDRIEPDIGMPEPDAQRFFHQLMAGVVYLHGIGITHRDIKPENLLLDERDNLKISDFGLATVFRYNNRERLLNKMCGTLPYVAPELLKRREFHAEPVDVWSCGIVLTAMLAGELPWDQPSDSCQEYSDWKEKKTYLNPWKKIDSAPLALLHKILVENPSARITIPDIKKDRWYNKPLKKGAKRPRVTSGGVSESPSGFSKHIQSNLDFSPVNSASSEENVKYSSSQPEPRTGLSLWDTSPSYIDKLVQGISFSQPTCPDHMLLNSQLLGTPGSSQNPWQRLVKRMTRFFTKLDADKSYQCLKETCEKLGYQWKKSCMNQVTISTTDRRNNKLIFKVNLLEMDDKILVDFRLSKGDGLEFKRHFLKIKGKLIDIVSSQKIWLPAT
UniProt Q8TF76, whole entry, stated change not applied: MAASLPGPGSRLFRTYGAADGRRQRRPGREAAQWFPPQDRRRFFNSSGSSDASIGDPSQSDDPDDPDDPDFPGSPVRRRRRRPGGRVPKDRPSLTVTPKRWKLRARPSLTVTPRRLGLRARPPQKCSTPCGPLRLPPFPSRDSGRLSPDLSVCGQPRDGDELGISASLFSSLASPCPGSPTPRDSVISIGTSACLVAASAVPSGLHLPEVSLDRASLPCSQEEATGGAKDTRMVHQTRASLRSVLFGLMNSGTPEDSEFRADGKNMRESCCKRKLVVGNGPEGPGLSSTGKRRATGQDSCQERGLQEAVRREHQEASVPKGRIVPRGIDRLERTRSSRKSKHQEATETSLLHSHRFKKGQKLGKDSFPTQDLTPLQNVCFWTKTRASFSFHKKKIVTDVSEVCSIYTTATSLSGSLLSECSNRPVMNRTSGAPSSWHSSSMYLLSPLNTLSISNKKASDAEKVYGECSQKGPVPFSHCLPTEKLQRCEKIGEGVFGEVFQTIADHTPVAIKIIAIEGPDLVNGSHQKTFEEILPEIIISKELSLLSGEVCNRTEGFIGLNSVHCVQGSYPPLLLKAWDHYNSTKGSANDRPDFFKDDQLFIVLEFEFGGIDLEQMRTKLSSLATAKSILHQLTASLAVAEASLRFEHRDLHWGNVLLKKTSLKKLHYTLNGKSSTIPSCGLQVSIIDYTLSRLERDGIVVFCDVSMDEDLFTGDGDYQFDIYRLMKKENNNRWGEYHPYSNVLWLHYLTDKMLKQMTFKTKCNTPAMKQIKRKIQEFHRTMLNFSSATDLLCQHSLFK
UniProt Q9H4A3, whole entry, stated change not applied: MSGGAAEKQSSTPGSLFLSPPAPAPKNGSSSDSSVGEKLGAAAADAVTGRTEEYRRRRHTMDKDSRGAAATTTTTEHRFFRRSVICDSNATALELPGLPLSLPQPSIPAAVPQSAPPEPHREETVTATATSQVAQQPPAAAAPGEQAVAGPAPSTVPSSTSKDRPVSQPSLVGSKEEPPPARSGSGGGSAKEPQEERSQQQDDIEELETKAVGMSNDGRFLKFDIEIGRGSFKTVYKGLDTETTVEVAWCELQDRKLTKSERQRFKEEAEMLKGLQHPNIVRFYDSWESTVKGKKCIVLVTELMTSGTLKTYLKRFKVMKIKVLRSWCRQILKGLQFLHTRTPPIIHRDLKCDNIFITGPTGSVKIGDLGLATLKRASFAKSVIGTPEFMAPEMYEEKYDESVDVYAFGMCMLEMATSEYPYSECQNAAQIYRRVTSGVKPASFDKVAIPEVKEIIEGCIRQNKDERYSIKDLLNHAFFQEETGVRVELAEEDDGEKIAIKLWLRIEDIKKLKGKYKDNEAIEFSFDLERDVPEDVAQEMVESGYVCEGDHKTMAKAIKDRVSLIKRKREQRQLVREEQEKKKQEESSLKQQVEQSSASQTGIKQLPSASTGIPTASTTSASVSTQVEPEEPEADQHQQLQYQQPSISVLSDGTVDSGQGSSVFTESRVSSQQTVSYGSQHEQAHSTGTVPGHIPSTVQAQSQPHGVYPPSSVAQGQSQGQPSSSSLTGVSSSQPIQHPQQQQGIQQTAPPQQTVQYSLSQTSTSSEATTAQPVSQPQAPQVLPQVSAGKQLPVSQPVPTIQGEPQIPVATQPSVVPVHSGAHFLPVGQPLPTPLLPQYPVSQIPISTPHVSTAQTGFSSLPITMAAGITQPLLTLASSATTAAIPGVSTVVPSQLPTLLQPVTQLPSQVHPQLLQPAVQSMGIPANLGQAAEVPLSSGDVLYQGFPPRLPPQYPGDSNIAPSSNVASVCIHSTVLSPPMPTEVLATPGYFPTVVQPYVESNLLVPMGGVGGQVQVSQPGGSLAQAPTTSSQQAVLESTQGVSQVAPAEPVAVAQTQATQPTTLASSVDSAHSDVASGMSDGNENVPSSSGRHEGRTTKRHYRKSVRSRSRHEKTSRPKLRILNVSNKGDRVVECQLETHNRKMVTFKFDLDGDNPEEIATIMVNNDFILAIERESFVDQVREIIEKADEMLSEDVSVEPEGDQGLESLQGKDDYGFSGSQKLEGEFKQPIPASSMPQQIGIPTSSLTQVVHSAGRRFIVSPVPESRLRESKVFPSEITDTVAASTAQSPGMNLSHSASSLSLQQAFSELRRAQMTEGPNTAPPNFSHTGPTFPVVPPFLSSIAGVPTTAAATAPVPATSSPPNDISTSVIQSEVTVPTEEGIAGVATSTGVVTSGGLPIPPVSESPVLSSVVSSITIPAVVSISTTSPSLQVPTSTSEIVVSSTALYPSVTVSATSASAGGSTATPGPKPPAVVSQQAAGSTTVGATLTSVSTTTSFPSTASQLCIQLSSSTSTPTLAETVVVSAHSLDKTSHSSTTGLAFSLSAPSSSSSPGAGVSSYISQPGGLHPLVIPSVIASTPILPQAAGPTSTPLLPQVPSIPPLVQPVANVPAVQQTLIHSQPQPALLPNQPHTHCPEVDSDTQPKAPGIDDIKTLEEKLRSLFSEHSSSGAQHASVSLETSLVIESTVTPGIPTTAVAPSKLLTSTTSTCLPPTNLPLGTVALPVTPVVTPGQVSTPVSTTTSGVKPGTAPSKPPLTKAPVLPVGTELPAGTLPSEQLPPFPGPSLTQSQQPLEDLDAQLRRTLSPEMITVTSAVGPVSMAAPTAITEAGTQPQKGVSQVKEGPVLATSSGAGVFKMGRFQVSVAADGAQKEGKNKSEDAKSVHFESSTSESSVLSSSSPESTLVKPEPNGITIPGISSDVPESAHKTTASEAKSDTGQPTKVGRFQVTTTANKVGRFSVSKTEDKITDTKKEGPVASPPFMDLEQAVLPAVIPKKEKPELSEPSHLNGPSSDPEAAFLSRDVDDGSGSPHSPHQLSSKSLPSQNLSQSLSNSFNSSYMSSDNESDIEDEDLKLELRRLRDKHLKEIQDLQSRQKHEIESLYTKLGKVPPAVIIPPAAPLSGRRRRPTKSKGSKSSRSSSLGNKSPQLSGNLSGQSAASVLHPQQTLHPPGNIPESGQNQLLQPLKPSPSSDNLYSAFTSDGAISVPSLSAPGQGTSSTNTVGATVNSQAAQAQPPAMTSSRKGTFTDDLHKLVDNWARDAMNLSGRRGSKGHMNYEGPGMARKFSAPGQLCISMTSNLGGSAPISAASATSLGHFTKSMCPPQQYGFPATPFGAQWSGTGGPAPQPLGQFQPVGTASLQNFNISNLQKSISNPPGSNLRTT
UniProt Q9NWZ3, whole entry, stated change not applied: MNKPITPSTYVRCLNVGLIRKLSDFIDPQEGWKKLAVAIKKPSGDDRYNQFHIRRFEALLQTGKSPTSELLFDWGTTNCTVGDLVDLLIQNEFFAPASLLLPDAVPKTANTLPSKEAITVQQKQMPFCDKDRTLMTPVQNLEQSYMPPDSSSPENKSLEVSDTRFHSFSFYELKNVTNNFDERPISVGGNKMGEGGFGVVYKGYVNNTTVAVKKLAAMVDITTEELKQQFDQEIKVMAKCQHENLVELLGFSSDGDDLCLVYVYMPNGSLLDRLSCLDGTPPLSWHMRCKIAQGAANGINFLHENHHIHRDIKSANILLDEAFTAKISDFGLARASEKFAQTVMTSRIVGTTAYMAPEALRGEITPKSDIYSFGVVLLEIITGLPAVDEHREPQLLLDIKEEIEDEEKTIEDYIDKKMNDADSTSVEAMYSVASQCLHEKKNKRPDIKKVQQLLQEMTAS

Legend:
Assay in all cases: Kinase profiling in a biochemical assay panel (mobility shift assays and ELISA), %-inhibition at 1 μM; selectivity entropy
[1] = target: panel of more than 300 wild-type and mutant kinases (313 kinase panel) (Homo sapiens, UniProt Q12866)
[2] = target: panel of more than 300 wild-type and mutant kinases (313 kinase panel) (Homo sapiens, UniProt P36888)
[3] = target: panel of more than 300 wild-type and mutant kinases (313 kinase panel) (Homo sapiens, UniProt Q02156)
[4] = target: panel of more than 300 wild-type and mutant kinases (313 kinase panel) (Homo sapiens, UniProt P27448); conditions: 1 µM
[5] = target: panel of more than 300 wild-type and mutant kinases (313 kinase panel) (Homo sapiens, UniProt Q96PY6); conditions: 1 µM
[6] = target: panel of more than 300 wild-type and mutant kinases (313 kinase panel) (Homo sapiens, UniProt P16234, V561D); conditions: 1 µM
[7] = target: panel of more than 300 wild-type and mutant kinases (313 kinase panel) (Homo sapiens, UniProt Q8N568); conditions: 1 µM
[8] = target: panel of more than 300 wild-type and mutant kinases (313 kinase panel) (Homo sapiens, UniProt P07949, M918T); conditions: 1 µM
[9] = target: panel of more than 300 wild-type and mutant kinases (313 kinase panel) (Homo sapiens, UniProt P51817); conditions: 1 µM
[10] = target: panel of more than 300 wild-type and mutant kinases (313 kinase panel) (Homo sapiens, UniProt P49759); conditions: 1 µM
[11] = target: panel of more than 300 wild-type and mutant kinases (313 kinase panel) (Homo sapiens, UniProt Q02763); conditions: 1 µM
[12] = target: panel of more than 300 wild-type and mutant kinases (313 kinase panel) (Homo sapiens, UniProt Q9Y243); conditions: 1 µM
[13] = target: panel of more than 300 wild-type and mutant kinases (313 kinase panel) (Homo sapiens, UniProt Q07912); conditions: 1 µM
[14] = target: panel of more than 300 wild-type and mutant kinases (313 kinase panel) (Homo sapiens, UniProt O14757); conditions: 1 µM
[15] = target: panel of more than 300 wild-type and mutant kinases (313 kinase panel) (Homo sapiens, UniProt Q04912); conditions: 1 µM
[16] = target: panel of more than 300 wild-type and mutant kinases (313 kinase panel) (Homo sapiens, UniProt Q8TDX7); conditions: 1 µM
[17] = target: panel of more than 300 wild-type and mutant kinases (313 kinase panel) (Homo sapiens, UniProt Q8TF76); conditions: 1 µM
[18] = target: panel of more than 300 wild-type and mutant kinases (313 kinase panel) (Homo sapiens, UniProt Q9H4A3); conditions: 1 µM
[19] = target: panel of more than 300 wild-type and mutant kinases (313 kinase panel) (Homo sapiens, UniProt Q00535); conditions: 1 µM
[20] = target: panel of more than 300 wild-type and mutant kinases (313 kinase panel) (Homo sapiens, UniProt P36894)
[21] = target: panel of more than 300 wild-type and mutant kinases (313 kinase panel) (Homo sapiens, UniProt O96013); conditions: 1 µM
[22] = target: panel of more than 300 wild-type and mutant kinases (313 kinase panel) (Homo sapiens, UniProt Q9NWZ3); conditions: 1 µM
[23] = target: panel of more than 300 wild-type and mutant kinases (313 kinase panel) (Homo sapiens, UniProt P11362); conditions: 1 µM

SMILES	%-inhibition of MARK3 [4]	%-inhibition of NEK1 [5]	%-inhibition of PDGFRα(V561D) [6]	%-inhibition of DCAMKL2 [7]	%-inhibition of RET(M918T) [8]	%-inhibition of PRKX [9]	%-inhibition, CLK1 [10]	%-inhibition of TIE2 [11]	%-inhibition, AKT3 [12]	%-inhibition, ACK [13]	%-inhibition, CHK1 [14]	%-inhibition of RON [15]	%-inhibition of NEK7 [16]	%-inhibition of Haspin [17]	%-inhibition of WNK1 [18]	%-inhibition, CDK5/p25 [19]	%-inhibition, BMPR1A [20]	%-inhibition of PAK4 [21]	%-inhibition of IRAK4 [22]	%-inhibition of FGFR1 [23]	also measured
CNC(=O)c1ccccc1Sc1ccc2c(/C=C/c3ccccn3)n[nH]c2c1 [axitinib]																					%-inhibition of MER ([1]; kinase MER, compound at 1 μM): 72%; %-inhibition of FLT3 ([2]; kinase FLT3, compound at 1 μM): 72%; %-inhibition of PKCε ([3]; kinase PKCε, 1 μM): -7.49%
COc1cc2ncnc(Nc3ccc(F)c(Cl)c3)c2cc1OCCCN1CCOCC1 [gefitinib]	11%	7%	65%	2.38%	48%	2.56%	23%	0.787%	5.27%	47%	17%	3.18%	-9%	-6%	2.48%	2.11%	14%	-6%	16%	7%	
C[C@@H]1CCN(C(=O)CC#N)C[C@@H]1N(C)c1ncnc2[nH]ccc12 [tofacitinib]	56%	-3%	10%	-0.503%	6%	8.46%	-1.42%	-0.857%	2.14%	17%	0.836%	4%	-1.23%	-0.537%	-3.25%	-15%	-1.57%	-17%	-3.69%	14%	%-inhibition of MER ([1]; 1 µM): 0.948%; %-inhibition of FLT3 ([2]; 1 µM): 9%; %-inhibition of PKCε ([3]; 1 µM): -4.32%
